From PubChem BioAssay AID652217 (Sanford-Burnham Center for Chemical Genomics, 2013)
This is a selection; strong and weak results do not stand in their true shares. The source made the active and inactive calls. Rule as the data show it: active = inhibition above about 40%; inactive = the rest.

Chains of the proteins cited; added tags and fusions are not shown.
UniProt P61081, whole entry, looked up: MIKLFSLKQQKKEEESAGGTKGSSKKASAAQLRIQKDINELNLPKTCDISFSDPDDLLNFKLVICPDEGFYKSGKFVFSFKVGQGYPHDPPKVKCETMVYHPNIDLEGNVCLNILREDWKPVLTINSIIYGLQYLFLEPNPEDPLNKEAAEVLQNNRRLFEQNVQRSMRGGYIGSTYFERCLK
UniProt Q13564, whole entry, looked up: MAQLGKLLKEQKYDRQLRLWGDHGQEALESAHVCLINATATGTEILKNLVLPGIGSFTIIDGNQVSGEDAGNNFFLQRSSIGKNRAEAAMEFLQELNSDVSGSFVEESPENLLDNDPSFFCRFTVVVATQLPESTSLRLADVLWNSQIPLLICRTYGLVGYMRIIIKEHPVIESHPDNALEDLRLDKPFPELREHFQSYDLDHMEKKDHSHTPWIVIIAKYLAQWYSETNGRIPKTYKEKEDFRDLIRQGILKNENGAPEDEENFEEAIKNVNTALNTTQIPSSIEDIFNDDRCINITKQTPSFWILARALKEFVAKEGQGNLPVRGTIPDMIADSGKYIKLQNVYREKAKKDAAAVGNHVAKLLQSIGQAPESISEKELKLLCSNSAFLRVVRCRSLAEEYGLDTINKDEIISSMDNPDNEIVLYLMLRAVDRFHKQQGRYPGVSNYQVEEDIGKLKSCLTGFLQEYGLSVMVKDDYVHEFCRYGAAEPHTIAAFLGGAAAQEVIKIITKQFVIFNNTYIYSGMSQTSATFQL

The compounds below were run against NEDD8-conjugating enzyme Ubc12 (Homo sapiens) + NEDD8-activating enzyme E1 regulatory subunit (Homo sapiens) (UniProt P61081+Q13564) (assay: blockade of NEDD8 conjugation to cullin – biochemical, TR-FRET, single concentration, confirmation (AID 652217;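 also: neddylation substrate is the cullin 1 ring ligase complex with SKP2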)). Conditions: TR-FRET cullin neddylation biochemical assay; at 25 µM; stronger effect = higher value.
In the case of `COc1ccc(-c2ccccn2)cc1.O=[N+]([O-])c1cc([N+](=O)[O-])c(O)c([N+](=O)[O-])c1`, the inhibition is reported as active: 46.4%.
